# Literature values, collected in patent publication US6689382B2, “Soft shell gelatin capsules containing non-steroidal anti-inflammatories” (priority 2002, dated 2004).
# System: COX-2 and COX-1
compound,measurement,value
"Cc1ccc(-c2cc(C(F)(F)F)nn2-c2ccc(S(N)(=O)=O)cc2)cc1 [celecoxib, Celecoxib]",selectivity for COX-2 relative to COX-1,375 times
